# Permeability data for macrocyclic peptides

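Conditions beyond the assay type are not listed; see the original paper. Other peptides of the study may be missing here. Peptides that the database sets to -10, its floor, are left out.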

PAMPA measures passive passage through an artificial lipid membrane.
P is given in units of 10^-6 cm/s (from log10 values with two decimals); larger means faster passage.

| compound | PAMPA (10^-6 cm/s) |
|---|---|
| COc1ccc(C[C@@H]2NC(=O)[C@H](CC(C)C)NC(=O)[C@@H](CC(C)C)NC(=O)[C@@H](CC(C)C)NC(=O)[C@H]3CCCN3C(=O)[C@H](CC(C)C)NC(=O)[C@H]3CCCN3C2=O)cc1 | 0.076 |
| COc1ccc(C[C@@H]2NC(=O)[C@@H](CC(C)C)NC(=O)[C@@H](CC(C)C)NC(=O)[C@H](CC(C)C)NC(=O)[C@@H](CC(C)C)NC(=O)[C@@H]3CCCN3C2=O)cc1 | 0.21 |
| COc1ccc(C[C@@H]2NC(=O)[C@@H](CC(C)C)NC(=O)[C@H]3CCCN3C(=O)[C@H](CC(C)C)NC(=O)[C@H](CC(C)C)NC(=O)[C@@H]3CCCN3C2=O)cc1 | 0.054 |
| COc1ccc(C[C@@H]2NC(=O)[C@H](CC(C)C)NC(=O)[C@@H](CC(C)C)NC(=O)[C@H](CC(C)C)NC(=O)[C@H](CC(C)C)NC(=O)[C@H]3CCCN3C2=O)cc1 | 0.18 |
| COc1ccc(C[C@@H]2NC(=O)[C@@H](CC(C)C)NC(=O)[C@@H](CC(C)C)NC(=O)[C@@H](CC(C)C)NC(=O)[C@H](CC(C)C)NC(=O)[C@@H]3CCCN3C2=O)cc1 | 0.069 |
| COc1ccc(C[C@@H]2NC(=O)[C@@H](CC(C)C)NC(=O)[C@H](CC(C)C)NC(=O)[C@@H](CC(C)C)NC(=O)[C@H](CC(C)C)NC(=O)[C@H](CC(C)C)NC(=O)[C@H]3CCCN3C2=O)cc1 | 0.39 |
| COc1ccc(C[C@@H]2NC(=O)[C@@H](CC(C)C)NC(=O)[C@@H](CC(C)C)NC(=O)[C@@H](CC(C)C)NC(=O)[C@@H](CC(C)C)NC(=O)[C@@H]3CCCN3C2=O)cc1 | 0.3 |
| COc1ccc(C[C@@H]2NC(=O)[C@H](CC(C)C)NC(=O)[C@H](CC(C)C)NC(=O)[C@@H](CC(C)C)NC(=O)[C@H]3CCCN3C(=O)[C@@H]3CCCN3C2=O)cc1 | 0.089 |
| COc1ccc(C[C@@H]2NC(=O)[C@H](CC(C)C)NC(=O)[C@H](CC(C)C)NC(=O)[C@@H]3CCCN3C(=O)[C@@H](CC(C)C)NC(=O)[C@H](CC(C)C)NC(=O)[C@H]3CCCN3C2=O)cc1 | 0.11 |
| COc1ccc(C[C@@H]2NC(=O)[C@H](CC(C)C)NC(=O)[C@@H](CC(C)C)NC(=O)[C@@H](CC(C)C)NC(=O)[C@@H](CC(C)C)NC(=O)[C@@H]3CCCN3C2=O)cc1 | 0.34 |
| COc1ccc(C[C@@H]2NC(=O)[C@@H](CC(C)C)NC(=O)[C@@H]3CCCN3C(=O)[C@@H](CC(C)C)NC(=O)[C@H]3CCCN3C(=O)[C@H](CC(C)C)NC(=O)[C@H]3CCCN3C2=O)cc1 | 0.051 |

2 of these entries, quoted again:

| compound | PAMPA (10^-6 cm/s) |
|---|---|
| COc1ccc(C[C@@H]2NC(=O)[C@H](CC(C)C)NC(=O)[C@@H](CC(C)C)NC(=O)[C@H](CC(C)C)NC(=O)[C@H](CC(C)C)NC(=O)[C@H]3CCCN3C2=O)cc1 | 0.18 |
| COc1ccc(C[C@@H]2NC(=O)[C@@H](CC(C)C)NC(=O)[C@H]3CCCN3C(=O)[C@H](CC(C)C)NC(=O)[C@H](CC(C)C)NC(=O)[C@@H]3CCCN3C2=O)cc1 | 0.054 |

Values of Rezai et al. 2006, doi:10.1021/ja063076p, as listed in CycPeptMPDB.